Test system: human histone H4c gene (radiolabeled PCR product)
Conditions: polyamide concentrations up to 100 nM

For CN(C)CCCNC(=O)CCNC(=O)c1cc(NC(=O)c2cc(NC(=O)c3cc(NC(=O)c4cc(NC(=O)C(N)CCNC(=O)c5nc(NC(=O)CCNC(=O)c6nc(NC(=O)c7nccn7C)cn6C)cn5C)cn4C)cn3C)cn2C)cn1C (stereo not shown) [1S], which “binding to the H4c DNA fragment” value is on record?
The value was “failed to bind”.
